Ab-14 heavy chain CDR variants: yeast mating affinities

Target: peptide PDVDLGDISGINAS, taken from heptad repeat 2 (HR2) of SARS-CoV-2 spike.

Parent scFv Ab-14: VH joined to VL by three GGGGS repeats. Changes lie in the heavy chain CDRs alone.
VH: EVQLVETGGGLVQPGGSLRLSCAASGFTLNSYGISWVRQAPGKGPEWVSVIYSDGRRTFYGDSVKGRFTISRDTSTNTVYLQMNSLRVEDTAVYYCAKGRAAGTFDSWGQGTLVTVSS
VL: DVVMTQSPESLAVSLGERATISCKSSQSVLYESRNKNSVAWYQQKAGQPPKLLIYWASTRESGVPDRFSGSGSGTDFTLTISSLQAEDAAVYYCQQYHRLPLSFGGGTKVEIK

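The parent was found by panning a naive human phage display library on the peptide. The variants were designed computationally from a first round of random CDR variants and then made and measured. Several design methods are mixed in this list. AlphaSeq pools MATa yeast showing the antibodies with MATalpha yeast showing the peptide. Binding brings cells together so that they mate, and sequencing counts the barcode pairs among the diploids. Scores were corrected for input abundance and mapped to Kd with protein pairs of known affinity run in the same pool. Each pool was mated in six replicate cultures.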

Each variant is given by its three heavy chain CDRs, as the data file delimits them; those of the parent are GFTLNSYGIS, VIYSDGRRTFYGDSVK, GRAAGTFDS. Each Kd is an estimate from the mating assay, the geometric mean of the replicates in which the pair was seen; lower is stronger. A pair that was not seen in any replicate is written "nd"; this usually means weak binding, but a binder can also be missed.

CDR-H1,CDR-H2,CDR-H3,apparent Kd,seen in
GFDLNSYGIS,VIYSDGRRTFYGDSVK,SRLAGTSMS,nd,0 of 6
GFDLNEYGIS,VIYADGVRTFYADSVK,GEAAGSFDQ,5.8 nM,5 of 6
GFSLNDYGIS,VIYSDGRRTFYDDMVK,GRTAGTFDS,4.9 nM,6 of 6
GFTLNSYGIS,VIYSDGRRTFYGDSVK,GRPAGTFDP,19 nM,6 of 6
EFQIQDYGIS,VIYADGSRTAYAESVK,GNMGGTFST,21 nM,2 of 6
GFTLNSYGIS,VIYSDGRRTFYGDQVK,GKIALTFDS,nd,0 of 6
GFTLDSYHIS,VIYSDGRRTFYGDSVK,GRAAGTALS,250 nM,1 of 6
GFDLDEYGIS,VIYADGMRTVYADDVK,GENAGTFDV,60 pM,6 of 6
GFTLNSYGIS,VIYADGRRTFYGDDVK,GRAAGTFKM,nd,0 of 6
KFSLNSYGIS,VIYSDGRRTFYGDSVK,GRIAGTFDS,nd,0 of 6
GFTLNSYGIS,VIYSDGRRTFYGDSVT,GRVAGTFCS,nd,0 of 6
KFELNSYGIS,VIYSDGRRTFYQDSVK,GRTAGTFDS,19 nM,2 of 6
EFTLNSYGIS,VIYSDGRRTFYGDSVK,GRVAGTFDS,9.3 nM,5 of 6
GFTLNGYGIS,VIYSDGRRTFYSDSVK,GTAAGFFDS,11 nM,6 of 6
GFTLNSYGIS,VIYSDGRRTAYGDNVK,GRQAGTFDS,5.0 nM,6 of 6
GFGLNEYGIS,VIYSDGRRTFYGDSVK,GRAAGTFDQ,4.6 nM,6 of 6
GFVLNQYGIS,VIYSDGRRTFYSDSVK,GRQAGTFDS,11 nM,6 of 6
GFTLNSYGIS,VIYSDGRRTFYGDSVH,GRAAGTFDQ,nd,0 of 6
GFDLNSYGIS,VIYSDGRRTFYGDSVK,GRAAGAFNS,2.7 nM,6 of 6
GFDLNEYGIS,VIYSDGRRTFYIDSVK,GRAAGTFDS,3.1 nM,12 of 12
GFTLNSYGIS,VIYSDGMRTFYGDSVK,GRVAGTFDT,34 nM,5 of 6
GFDLNSYGIS,VIYSDGKRTFYGDPVK,GRTAGTFDS,1.4 nM,6 of 6
GFQLNDYGIS,VIYSDGRRTFYGDSVK,GRVAVTFFS,760 pM,6 of 6
GADIQEYGIS,VIYADGIRTAYAQNVK,GEYGSQFDE,87 nM,1 of 6
YFSLNSYGIS,VIYSDGRRTFYGDSVK,GEAAGTFDS,nd,0 of 6
GFTLNSYGIS,VIYSDGYRTFYGDSVK,GRAAGTGDS,nd,0 of 6
GFDLDEMGIS,VIYADGVRTAYIDQVK,GMKGDFMDT,nd,0 of 6
GDSLAEYGIS,VIYADGERTAYKNKFK,GWVAGYFDV,nd,0 of 6
GFSLNSYGIS,VIYSDGIRTFYDDSVK,GRADGTFDS,nd,0 of 6
GFTLNQYGIS,VIYSDGTRTFYSDSVK,GRTAGTFDS,1.8 nM,6 of 6
GFTLNEYGIS,VIYSDGVRTFYGDSVK,GRAAGTFDS,3.0 nM,6 of 6
GFGLNSYGIS,VIYSDGRRTFYGDSVK,GSEAGTFDT,1.0 nM,6 of 6
GRTLNSYGIS,VIYSDGRRTFYSDSVK,HRAASTFDS,nd,0 of 6
GFDLNEYGIS,VIYADGVRTAYVDDVK,GNVAGTFDI,360 pM,6 of 6
GFDLNSYGIS,VIYSDGRRTFYGDSVK,GRAEGTFDS,nd,0 of 6
GFDLEEYGIS,VIYADGKRTFYADSVK,GNVAGTFDV,290 pM,6 of 6
GFTLNSYGVS,VIYACGRRTFYGDSVK,GRAAVTNKS,nd,0 of 6
GFTLNQYGIS,VIYSDGRRTFYADSVK,GNAAGTFDS,5.5 nM,6 of 6
GFTLDSYGIS,VIYSDGRRTFYGDSVK,GRVAGTFDQ,4.2 nM,6 of 6
GFDLESYGIS,VIYADGRRTFYADKVK,GSNAGTFDI,7.6 nM,6 of 6
GFTLESYGIS,VIYSDPRRTFYSDSVK,GRAGHTFGS,nd,0 of 6
GFDLDEYGIS,VIYADGQRTAYSDSVK,GEVAGTFDV,190 pM,6 of 6
GFSLNSYGIS,VIYSDGRRTFYADSVK,GRNAGTFDS,1.6 nM,12 of 12
GFSLNSYGIS,VIYSDGRRTFYGDSVK,GATAGTFDS,1.3 nM,6 of 6
GFTLNSPGIS,VIYSDGRRTFYSDSVK,GRAGGKFDS,nd,0 of 6
GVDIDEYGIS,VIYADGIRTFYQDKVK,GNVGGMFDT,14 nM,4 of 6
GFQLNSYGIS,VIYSDGRRTFYADSVK,GRQAGTFDS,15 nM,6 of 6
GFDLNEYGIS,VIYADGRRTAYANSVK,GEVAGTFDV,880 pM,6 of 6
GFDLNSYGIS,VIYSDGRRTAYEDSVK,LTLMGTFDS,nd,0 of 6
GFELNSYGIS,VIYSDGRRTFYGDSVK,GVNAGTFDT,1.3 nM,6 of 6
GFDLNEYGIS,VIYADGMRTAYADSVK,GKAAGTFDS,1.6 nM,6 of 6
GFDLNEYGIS,VIYADGMRTAYADSVK,GGTAGTFDV,340 pM,6 of 6
GFHLNSYGIS,VIYSDGHRTFYGDSVK,GRLAGAFDS,nd,0 of 6
GFDLNEYGIS,VIYADGKRTMYADSVK,GENAGTFDV,1.2 nM,6 of 6

Empty control strains, which show no peptide, gave a signal in 1% of pairings with all heavy chain designs; the median was 120 nM and 95% of these signals were weaker than 7.0 nM. No background was subtracted. Some sequences occur more than once in the pool; their replicates are pooled. The range of this assay differs from that of the first round, and the authors advise against merging the two. The authors averaged sequences with at least three values out of six and counted those with two or fewer as poor binders.

Reference: Li et al. 2023, doi:10.1038/s41467-023-39022-2. File: FLAb, binding data.